Key:
[1] = tested on: KRas-mediated phosphorylation of ERK in H727 cells
[2] = target: KRas^G12R (Homo sapiens, UniProt P01116, G12R)
[3] = target: KRas^G12D (Homo sapiens, UniProt P01116, G12D)
[4] = tested on: KRas-mediated phosphorylation of ERK in AsPC-1 cells
[5] = target: KRas^G12V (Homo sapiens, UniProt P01116, G12V)

Amino acid sequences for entries named in this document (tags omitted). Residues count along the entry.
UniProt P01116, 1-169 isoform 2 G12D limits assumed: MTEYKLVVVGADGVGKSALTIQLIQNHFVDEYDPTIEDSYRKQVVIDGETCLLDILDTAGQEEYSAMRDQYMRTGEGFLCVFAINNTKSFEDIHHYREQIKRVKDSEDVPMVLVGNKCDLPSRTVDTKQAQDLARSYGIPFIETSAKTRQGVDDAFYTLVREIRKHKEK
UniProt P01116, 1-169 isoform 2 G12R limits assumed: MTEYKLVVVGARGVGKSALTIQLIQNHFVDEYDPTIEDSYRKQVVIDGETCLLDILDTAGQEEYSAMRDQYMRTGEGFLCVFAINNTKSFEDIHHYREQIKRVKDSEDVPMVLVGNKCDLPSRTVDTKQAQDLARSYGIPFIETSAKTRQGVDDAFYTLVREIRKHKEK
UniProt P01116, 1-169 isoform 2 G12V limits assumed: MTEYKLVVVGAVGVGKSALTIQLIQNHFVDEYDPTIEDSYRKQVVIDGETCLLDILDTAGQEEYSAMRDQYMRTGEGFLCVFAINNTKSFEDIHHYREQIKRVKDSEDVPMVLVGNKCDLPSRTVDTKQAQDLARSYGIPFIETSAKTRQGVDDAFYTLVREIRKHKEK

- IC50 [1]: 936 nM
- IC50 [2]: 26 nM
- IC50 [3]: 32 nM
- IC50 [4]: 3650 nM
- IC50 [5]: 10 nM
SMILES: CCc1c(F)ccc2cc(O)cc(-c3ncc4c(NCc5cc(C(=O)N(C)C)nn5C(F)F)nc(OC[C@@]56CCCN5C[C@H](F)C6)nc4c3F)c12
